## scFv variants of Ab-14 (light chain) against a SARS-CoV-2 spike peptide

The target is the same throughout: PDVDLGDISGINAS, from the HR2 region of SARS-CoV-2 spike.

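Phage display of a naive human antibody library on the peptide gave the parent. Designed CDR sequences, proposed from the first random library and measured here. Group labels follow the data file (Ctrl: baseline library sampled from a position-specific scoring matrix, with some repeated check sequences; GP: Gaussian process model; HC: hill climbing; Gen: genetic algorithm; Gibbs: Gibbs sampling; a sequence that several methods proposed may carry one label only). In AlphaSeq, yeast of one mating type display the scFv and yeast of the other type display the target. Mating (16 h, 30 °C) was followed by selection of diploids and sequencing of their barcodes. Each replicate has its own calibration line, from reference interactions of the BCL2 family. Mating was done six times.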

Each scFv is VH, the linker GGGGSGGGGSGGGGS, VL, as in the parent Ab-14, and differs from it in the CDRs of the light chain only.
VH: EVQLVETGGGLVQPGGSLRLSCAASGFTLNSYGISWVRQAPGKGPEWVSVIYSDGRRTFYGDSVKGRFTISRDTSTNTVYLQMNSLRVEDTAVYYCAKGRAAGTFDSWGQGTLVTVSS
VL: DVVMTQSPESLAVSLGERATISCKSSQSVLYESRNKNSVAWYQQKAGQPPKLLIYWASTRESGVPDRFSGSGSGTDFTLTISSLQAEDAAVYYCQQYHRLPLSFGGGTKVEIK

Substitutions are numbered in sequence along the VL above, starting at 1 (not Kabat). This list holds designs with at most six substitutions. Values are apparent Kd, the geometric mean of the replicates that gave a signal; lower means stronger binding. "no signal" means that the variant was in the library but no mating with the target was seen in any replicate; the authors take this as a sign of poor binding, and no number exists.

* R34T/N35S/W56G/Q95T/L102I [Ctrl] = 70 nM (6 of 6 replicates; controls 5 of 18)
* S25V/S26R/V29Q/W56N [GP_HC] = 2.4 nM (6 of 6 replicates; controls 0 of 18)
* S25F/W56D/H98Q [GP_HC] = 520 pM (6 of 6 replicates; controls 0 of 18)
* S28P/L100D [Ctrl] = no signal (0 of 6 replicates; controls 0 of 18)
* V29W/W56G/T59R/S62V [GP_HC] = 1.3 nM (6 of 6 replicates; controls 0 of 18)
* R34E/W56E/T59V/R99K [Ctrl] = 5.3 nM (6 of 6 replicates; controls 2 of 18)
* Q27P/L30P/W56N/S62E/Q96D [GP_HC] = 1.0 nM (6 of 6 replicates; controls 0 of 18)
* S25L/V29W/W56N/T59Q/S62Q [GP_Gen] = 1.5 nM (6 of 6 replicates; controls 1 of 18)
* S25L/V29H/N35Q/W56N [GP_Gen] = 1.3 nM (6 of 6 replicates; controls 3 of 18)
* S25V/V29Y/W56N/S62V [GP_Gen] = 2.2 nM (6 of 6 replicates; controls 1 of 18)
* S25M/N35R/R60G [Ctrl] = 65 nM (1 of 6 replicates; controls 0 of 18)
* S26Q/N35R/T59Q [Ctrl] = 740 nM (4 of 6 replicates; controls 0 of 18)
* S25L/V29T/W56N/E61L [GP_Gen] = 580 pM (6 of 6 replicates; controls 1 of 18)
* Q27L/Y31F/W56D/E61S [GP_HC] = 4.6 nM (6 of 6 replicates; controls 0 of 18)
* Q27I/V29W/W56E/S103M [GP_HC] = 1.1 nM (6 of 6 replicates; controls 0 of 18)
* V29E/R34L/W56H/S58K [Ctrl] = 3.7 nM (6 of 6 replicates; controls 0 of 18)
* K24A/W56E/S62N [Ctrl] = 4.5 nM (6 of 6 replicates; controls 2 of 18)
* Q27I/V29Y/R34E/N37C/W56E/T59Q [GP_HC] = 740 pM (6 of 6 replicates; controls 0 of 18)
* S28Q/K36H [Ctrl] = 56 nM (5 of 6 replicates; controls 1 of 18)
* S25M/V29F/W56D [GP_HC] = 250 pM (6 of 6 replicates; controls 1 of 18)
* S26L/N35D/W56H/E61L/S62D [GP_HC] = 2.1 nM (6 of 6 replicates; controls 0 of 18)
* K24L/Q27P/V29Y/R34P/W56E [GP_HC] = 5.3 nM (6 of 6 replicates; controls 1 of 18)
* S25F/V29E/W56N/T59Q/E61L [GP_Gen] = 750 pM (6 of 6 replicates; controls 0 of 18)
* S25T/N35E [Ctrl] = 36 nM (6 of 6 replicates; controls 0 of 18)
* S25L/S26R/V29T/L30Q/K36Q/T59L [GP_HC] = 7.2 nM (6 of 6 replicates; controls 0 of 18)
* S25L/V29M/L30E/W56N/E61L [GP_Gen] = 620 pM (6 of 6 replicates; controls 1 of 18)
* S25L/Q27F/S38N/W56D [GP_Gen] = 290 pM (6 of 6 replicates; controls 0 of 18)
* S25L/V29W/N35M/S38N/W56N/T59Q [GP_Gen] = 2.6 nM (6 of 6 replicates; controls 0 of 18)
* S25L/V29D/W56Q/E61M [GP_Gen] = 960 pM (6 of 6 replicates; controls 1 of 18)
* S25L/V29W/W56N/T59Q/S62E [GP_Gen] = 2.5 nM (6 of 6 replicates; controls 1 of 18)
* S25L/V29P/W56E [GP_Gen] = 590 pM (6 of 6 replicates; controls 1 of 18)
* S26P/V29E/W56N [GP_Gen] = 1.5 nM (6 of 6 replicates; controls 1 of 18)
* S25V/S33D/W56H/T59Q [GP_Gen] = 350 pM (6 of 6 replicates; controls 0 of 18)
* S25I/S26Q/V29E/Y31Q/W56N/T59E [GP_Gibbs] = 1.4 nM (6 of 6 replicates; controls 1 of 18)
* S28Q/W56S/Q96A [Ctrl] = 4.3 nM (6 of 6 replicates; controls 0 of 18)
* S25L/S26R/V29T/W56L/T59V [GP_HC] = 11 nM (6 of 6 replicates; controls 1 of 18)
* S25F/S28W/N35E/W56N [GP_HC] = 1.5 nM (6 of 6 replicates; controls 4 of 18)
* Q27G/S33L [Ctrl] = no signal (0 of 6 replicates; controls 1 of 18)
* S26M/V29Q/W56D/H98F [Ctrl] = 830 pM (6 of 6 replicates; controls 1 of 18)
* S25L/S26R/V29T/S38E/W56H [GP_HC] = 4.9 nM (6 of 6 replicates; controls 0 of 18)
* S25M/V29Q/W56N/A57G [GP_Gibbs] = 1.2 nM (6 of 6 replicates; controls 1 of 18)
* S26G/K36V/W56N [Ctrl] = 1.6 nM (6 of 6 replicates; controls 0 of 18)
* Y31A/R34N/V39I/W56S/Q96G [Ctrl] = 15 nM (6 of 6 replicates; controls 1 of 18)
* S25L/S26M/V29M/W56D/T59Q [GP_Gen] = 530 pM (6 of 6 replicates; controls 1 of 18)
* K24H/Q27P/L30Q/W56D/S62E/Q96D [GP_HC] = 660 pM (6 of 6 replicates; controls 0 of 18)
* S33D/W56H/S62R/H98A [Ctrl] = 11 nM (6 of 6 replicates; controls 1 of 18)
* S26D/S28G/E32Q/W56G [GP_HC] = 1.0 nM (6 of 6 replicates; controls 1 of 18)
* S25I/S28E/L30W/W56G/T59Q [GP_Gibbs] = 2.3 nM (6 of 6 replicates; controls 1 of 18)
* S25Y/Y31G/N35Y/H98R [Ctrl] = 240 nM (3 of 6 replicates; controls 1 of 18)

The first 2 variants above that were never detected:

{"changes": "S28P/L100D", "group": "Ctrl", "apparent Kd": "no signal", "detected": "0 of 6", "empty controls": "0 of 18"}
{"changes": "Q27G/S33L", "group": "Ctrl", "apparent Kd": "no signal", "detected": "0 of 6", "empty controls": "1 of 18"}

Nonspecific signal, from three strains lacking the peptide, appeared in 4% of pairings of all light chain designs, centred on 430 nM (5% of these signals below 38 nM); values are not corrected for it. For each scFv, signals with the empty controls are counted beside the result. In the paper, a design with two or fewer of six values counts as a poor binder. The parent sequence was in this pool as ten entries: three were never detected, three once, and four in most replicates, with averages from 2.2 nM to 240 nM. A sequence measured in both rounds can read differently, since the two assays cover different ranges.

From the AlphaSeq antibody data of Li et al. 2023 (doi:10.1038/s41467-023-39022-2), copy in the FLAb collection.